{
  "sequences": {"note": "Protein sequences, listed by entry. Tags and fused reporters are not part of them.", "UniProt P34972, whole entry": "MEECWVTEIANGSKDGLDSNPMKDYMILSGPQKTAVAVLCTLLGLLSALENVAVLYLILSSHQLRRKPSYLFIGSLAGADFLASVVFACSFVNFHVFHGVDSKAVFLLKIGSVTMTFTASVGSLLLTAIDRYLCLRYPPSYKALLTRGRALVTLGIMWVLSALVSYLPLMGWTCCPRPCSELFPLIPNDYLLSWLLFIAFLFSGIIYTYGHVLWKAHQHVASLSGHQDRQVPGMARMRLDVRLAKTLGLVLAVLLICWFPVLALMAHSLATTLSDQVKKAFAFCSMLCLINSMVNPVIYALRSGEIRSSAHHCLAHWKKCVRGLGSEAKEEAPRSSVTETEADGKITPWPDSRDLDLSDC"},
  "source": "ChEMBL document CHEMBL1268814",
  "about": "“Synthesis and biological evaluation of bivalent ligands for the cannabinoid 1 receptor” (J Med Chem, 2010)",
  "molecular_target": "Cannabinoid receptor 2 (Homo sapiens, UniProt P34972)",
  "assay": "Displacement of [3H]CP55940 from human CB2 receptor expressed in CHOK1 cells",
  "type": "cell-based, CHO-K1",
  "note": "pKi: −log10 of the molar value.",
  "data": [
    {"compound": "Cc1c(C(=O)NCCCCCCCN(C)CCCCCCCNC(=O)c2nn(-c3ccc(Cl)cc3Cl)c(-c3ccc(Cl)cc3)c2C)nn(-c2ccc(Cl)cc2Cl)c1-c1ccc(Cl)cc1", "values": [
      {"measurement": "pKi", "value": 6.17}
    ]}
  ]
}
